The subject of data set [1] is HCC1954, MCF7, MDA-MB-231, and MDA-MB-468 cells.
The target of data set [2] is T1, recombinant HER2 extracellular domain (Homo sapiens, UniProt P04626).
T1 construct: for different constructs against the recombinant HER2 extracellular domain; purchased R&D Systems 1129-ER-050
Briefly: Binding to recombinant HER2-Fc fusion by ELISA. As to conditions: read-out: EC50 for recombinant HER2 (binding affinity). A general note: An ELISA detects its analyte on a solid surface through an enzyme-linked reagent.

Data set [3] can be described thus: Fluorescence-based CD38 ADP-ribosyl cyclase activity assay of CD38 IgG fusions. It is filed as biochemical, human. Particulars: NGD+ substrate, cyclic GDP-ribose fluorescence; in contrast to CD38 catalytic domain. From the text: Enzymatic Activities of CD38 and CD38 IgG Fusions.
NGD^+ (Sigma-Aldrich, MO) was used as a substrate to determine ADP-ribosyl cyclase activity of purified CD38 and CD38 C-fusion IgG. Cyclic GDP-ribose (cGDPR) form from CD38 cyclase activity is characterized by fluorescence emission at 410 nm (excitation at 300 nm).

Data set [4] can be described thus: Pharmacokinetics of CD38 C-fusion IgG in mice. It is filed as in vivo. Particulars: i.v. 3 mg/kg, CD-1 mice. On the procedure:
Pharmacokinetic Studies of CD38 C-Fusion IgG in Mice.
Five female CD-1 mice (6 weeks) were given CD38 C-fusion IgG in DPBS by tail vein intravenous (IV) injection at 3 mg/kg. Tail venipuncture was then performed for blood collection at different time points (0.5, 5, 9, 24, 48, 72, 120, 168 and 264 hours). Plasma concentrations of CD38 C-fusion IgG were determined using two different sandwich ELISAs. Standards used for the ELISA-based quantification were prepared through serial dilutions of 100 μg mL-1 antibody fusion in mouse plasma.
For the first sandwich ELISA, anti-human IgG (H+L) antibody (8 μg mL-1) (Seracare, MA) was coated on ELISA plates overnight at room temperature, followed by blocking with 3% BSA in PBS (pH 7.4) for 2 hours at room temperature. […] Finally, after three times wash with 0.1% PBST, 80 μL of QuantaBlu fluorogenic substrates (ThermoFisher Scientific, MA) were added and allowed for 5-minute incubation prior to measurements of the fluorescence at 425 nm by the Synergy H1 plate reader (BioTek, VT).
For the second sandwich ELISA, the same capture antibody, anti-human IgG (H+L) antibody, was used to capture the fusion antibody in plasma samples. […] Following three times wash with 0.1% PBST, 80 μL of the fluorogenic substrates were added and followed by measurements of fluorescence intensities by the plate reader. […]

Results on 2 substances are retold here after US11684676B2, “Site-specific antibody-drug conjugates by ADP-ribosyl cyclases” (University of Southern California, priority 2020, dated 2023).

In the case of “Herceptin: full-length anti-human HER2 antibody [reference compound]”, in data set [1], the cytotoxicity entry was “no cytotoxicity”.
Consider “CD38 C-fusion IgG: extracellular domain of CD38 fused to the C-terminus of Herceptin heavy chain with a peptide linker (SEQ ID NO: 18)”, for which the EC50 in data set [2] was found to be 1.02 ± 0.47 nM. For the same substance, in data set [3], the CD38 enzymatic activity entry is “significantly higher activity”. The figures for the half-life in data set [4] (ELISA detection by anti-CD38) and in data set [4] (ELISA detection by anti-kappa light chain) were 33.14 ± 19.49 h and 37.41 ± 16.63 h, respectively. The cytotoxicity entry in data set [1] was “no cytotoxicity”.

For orientation: EC50 means the concentration that produces a half-maximal response. For orientation: half-life means how long it takes for the measured level to halve.
